Test results reported in PubChem BioAssay (EPA / NIEHS).
The list shows a part of the results, in another mix than the full data. Records with an inconclusive call do not appear. Active and inactive are the calls of the source. How the source made its calls, unless noted: active means hit-call score of the fitted dose curve at least 0.9, where 1 is the maximum; inactive means score below 0.9.

Protein sequences, listed by entry. Tags and fused reporters are not part of them.
UniProt Q16656, whole entry: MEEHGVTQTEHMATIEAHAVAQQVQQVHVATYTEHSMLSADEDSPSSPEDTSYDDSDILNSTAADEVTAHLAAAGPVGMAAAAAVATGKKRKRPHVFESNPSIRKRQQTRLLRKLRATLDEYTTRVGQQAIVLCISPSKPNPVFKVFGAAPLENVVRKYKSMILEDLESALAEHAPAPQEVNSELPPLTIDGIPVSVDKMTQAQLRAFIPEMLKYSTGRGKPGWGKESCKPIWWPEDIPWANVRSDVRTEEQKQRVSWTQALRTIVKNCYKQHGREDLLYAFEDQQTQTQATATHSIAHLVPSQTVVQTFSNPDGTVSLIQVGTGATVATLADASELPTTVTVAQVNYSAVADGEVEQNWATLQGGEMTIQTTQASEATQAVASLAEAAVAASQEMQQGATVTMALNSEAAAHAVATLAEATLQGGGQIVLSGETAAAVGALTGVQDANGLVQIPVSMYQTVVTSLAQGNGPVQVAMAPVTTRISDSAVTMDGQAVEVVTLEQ
UniProt P08047, whole entry: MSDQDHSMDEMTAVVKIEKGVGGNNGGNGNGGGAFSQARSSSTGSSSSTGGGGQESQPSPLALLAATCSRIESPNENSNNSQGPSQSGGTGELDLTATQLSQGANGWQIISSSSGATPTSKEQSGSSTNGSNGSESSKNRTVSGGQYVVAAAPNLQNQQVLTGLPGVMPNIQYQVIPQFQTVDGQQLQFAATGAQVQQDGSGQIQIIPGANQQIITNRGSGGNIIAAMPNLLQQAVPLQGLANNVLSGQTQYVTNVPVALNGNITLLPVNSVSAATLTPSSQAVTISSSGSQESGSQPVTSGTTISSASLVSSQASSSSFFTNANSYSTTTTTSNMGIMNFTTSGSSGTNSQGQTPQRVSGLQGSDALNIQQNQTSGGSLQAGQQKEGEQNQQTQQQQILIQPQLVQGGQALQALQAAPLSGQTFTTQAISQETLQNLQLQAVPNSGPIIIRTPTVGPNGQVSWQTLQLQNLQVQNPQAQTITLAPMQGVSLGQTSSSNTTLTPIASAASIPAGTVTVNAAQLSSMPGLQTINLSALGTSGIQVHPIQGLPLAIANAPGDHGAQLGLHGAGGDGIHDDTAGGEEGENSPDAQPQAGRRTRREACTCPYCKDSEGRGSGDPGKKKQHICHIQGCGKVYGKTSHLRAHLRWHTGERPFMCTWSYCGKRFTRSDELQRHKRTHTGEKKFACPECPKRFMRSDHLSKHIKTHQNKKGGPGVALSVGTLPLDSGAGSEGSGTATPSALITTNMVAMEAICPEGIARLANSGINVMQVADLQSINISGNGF
UniProt P17861, whole entry: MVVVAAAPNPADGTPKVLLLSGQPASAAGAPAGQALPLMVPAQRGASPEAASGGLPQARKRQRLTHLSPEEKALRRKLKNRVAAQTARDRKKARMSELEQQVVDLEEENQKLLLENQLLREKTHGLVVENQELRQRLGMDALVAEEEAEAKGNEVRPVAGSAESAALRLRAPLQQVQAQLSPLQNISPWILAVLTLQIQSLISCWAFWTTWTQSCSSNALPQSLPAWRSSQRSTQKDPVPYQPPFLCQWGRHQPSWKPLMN

Columns and labels:
[1] = ATG_CRE_CIS: Attagene CIS-FACTORIAL HepG2 Assay for human cAMP Responsive Element (CRE) binding protein 3 (AID 2282926); details: HepG2 CRE cis-reporter, Attagene multiplexed mRNA; actives raise or lower the signal
How it was run: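 Endogenous CRE-binding activity in HepG2 is reported through a cis-regulated transfected reporter. Following a day of exposure, mRNA levels are determined by reverse transcription PCR and fluorescent fragment analysis; fits run in both directions versus DMSO.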

[2] = ATG_EGR_CIS: Attagene CIS-FACTORIAL HepG2 Assay for human Early Growth Response 1 (EGR1) (AID 2282938); details: HepG2 Attagene CIS-FACTORIAL EGR reporter mRNA; actives raise or lower the signal
How it was run: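 Transient transfection of human HepG2 with multiple cis-regulated reporter units, chemical exposure 24 h, total RNA isolated. Reverse transcription, PCR, fluorescent labelling and capillary electrophoresis quantify reporter transcripts; activity fitted bidirectionally against DMSO.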

[3] = ATG_GLI_CIS: Attagene CIS-FACTORIAL HepG2 Assay for human Zinc Finger Protein GLI1 (AID 2282945); details: HepG2, Attagene cis-factorial reporter mRNA, GLI element; actives raise or lower the signal
How it was run: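 Transiently transfected HepG2 cells report endogenous transcription factor activity via cis-element-driven reporter units. After 24 h compound exposure, reporter mRNA was measured by RT-PCR with capillary electrophoresis; bidirectional fitting against DMSO baseline.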

[4] = ATG_ISRE_CIS: Attagene CIS-FACTORIAL HepG2 Assay for human Interferon Regulatory Factor 1 (IRF1) binding to an Interferon-Stimulated Response Element (ISRE) (AID 2282948); details: HepG2 ISRE cis-reporter (Attagene), mRNA transcription readout; actives raise or lower the signal
How it was run: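 Quantitation relies on labelled RT-PCR fragments separated by capillary electrophoresis. Human HepG2 cells bearing cis-promoter reporter constructs were treated 24 h; DMSO served as baseline for bidirectional fitting.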

[5] = target: Nuclear respiratory factor 1 (Homo sapiens) (UniProt Q16656); test: ATG_NRF1_CIS: Attagene CIS-FACTORIAL HepG2 Assay for human Nuclear Respiratory Factor 1 (NRF1) Orphan Gene (AID 2282987); details: HepG2 NRF1 cis-element reporter, Attagene multiplex; actives raise or lower the signal
How it was run: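 Multiplexed cis-reporter assay, HepG2 cells, 24 h treatment. Total RNA → oligo(dT) RT → PCR with reporter-specific primers → 6-FAM primer extension → HpaI cut → CE. Bidirectional fit vs DMSO.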

[6] = ATG_NF_kB_CIS: Attagene CIS-FACTORIAL HepG2 Assay for human Nuclear Factor Kappa B (NF-kB) (AID 2282991); details: HepG2 Attagene cis-factorial NF-kB reporter mRNA; actives raise or lower the signal
How it was run: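 Transient MRTU transfection of human HepG2 liver cells → 24 h chemical exposure → total RNA, oligo(dT) RT → PCR, 6-FAM primer extension, HpaI digest 2 h 37 C → CE fragment analysis. Bidirectional fitting, DMSO negative control.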

[7] = ATG_XTT_Cytotoxicity: Cytotoxicity Assessment in the Attagene TRANS-FACTORIAL HepG2 Assay (AID 2283584; active means hit-call score of the fitted dose curve at least 0.9, where 1 is the maximum;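 further: cells exposed to compound for 24 h before reading; active means loss of viability signal versus DMSO baseline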)
How it was run: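 XTT readout of cell number in transfected HepG2 cells, 24 h post-dosing; DMSO serves as negative control and baseline, with activity taken as loss of viability signal.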

[8] = target: Transcription factor Sp1 (Homo sapiens) (UniProt P08047); test: ATG_Sp1_CIS: Attagene CIS-FACTORIAL HepG2 Assay for human Specificity Protein 1 (Sp1) (AID 2282961); details: HepG2 Sp1 cis-reporter transcription, actives raise or lower the signal
How it was run: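 Transient MRTU-transfected HepG2, 24 h compound exposure. Total RNA → oligo(dT) RT → PCR of reporter → 6-FAM primer extension → HpaI digest → CE. Endpoint fitted both directions vs DMSO.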

[9] = target: X-box-binding protein 1 (Homo sapiens) (UniProt P17861); test: ATG_Xbp1_CIS: Attagene CIS-FACTORIAL HepG2 Assay for human X-box Binding Protein 1 (XBP1) (AID 2282972); details: HepG2 XBP1 cis-element reporter, Attagene multiplex; actives raise or lower the signal
How it was run: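 After a 24-hour chemical exposure of HepG2 cells carrying cis-regulated reporters, reporter mRNA levels are assessed. Quantification uses RT-PCR, 6-FAM labelling and capillary electrophoresis. Gain- or loss-of-signal is fitted against DMSO.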

[10] = BSK_hDFCGF_Proliferation: Cell Proliferation Assessment in the BioMAP Diversity Plus: hDFCGF Assay (AID 2283059); details: primary human foreskin fibroblasts;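 further: curves fitted for both rise and fall of signal versus DMSO baseline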
How it was run: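 Steps: dose primary human dermal fibroblasts (foreskin); […] fix in 10% TCA; stain with 0.1% SRB; read 560 nm; fit gain or loss of signal against DMSO.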

[11] = STM_H9_NormalizedViability: Cytotoxicity Assessment at 120 hours in the Stemina devTOX quickPredict H9 human embryonic stem cell (hESC)-based Assay (AID 2283784; active means hit-call score of the fitted dose curve at least 0.9, where 1 is the maximum)
How it was run: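 Undifferentiated H9 hESCs kept pluripotent were exposed to compound, with media and chemical replaced every 24h. CellTiter-Fluor protease-substrate fluorescence was background-corrected and normalized per plate to the 0.1% DMSO vehicle; signal loss indicates reduced viability.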

[12] = read-out: Interleukin 17A (IL17A), IL17A (gene 3605); test: BSK_BT_xIL17A: BioMAP Diversity Plus: BT Assay for Interleukin 17A (IL17A) Biomarker Activity (AID 2284229); details: primary human B cells with PBMC
How it was run: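 Luminex xMAP readout of secreted IL-17A; human B cell + PBMC co-culture; 24 h post-dose; positive-direction fit vs DMSO negative control.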

[13] = read-out: Interleukin 2 (IL2), IL2 (gene 3558); test: BSK_BT_xIL2: BioMAP Diversity Plus: BT Assay for Interleukin 2 (IL2) Biomarker Activity (AID 2284245); details: primary human B cells with PBMC
How it was run: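 Human B cells co-cultured with PBMC, exposed to test chemical for 24 h. Secreted IL-2 quantified by Luminex xMAP bead immunoassay; activity fitted in the positive direction relative to DMSO vehicle baseline.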

Measured: AC50

O=[As]c1ccccc1 (stereo not drawn)
active: [1] 0.295 µM | [2] 0.332 µM | [3] 0.469 µM | [4] 0.323 µM | [5] 0.332 µM | [6] 0.234 µM | [7] 1.34 µM

O=[N+]([O-])c1ccc([N+](=O)[O-])cc1
active: [8] 81.9 µM | [9] 57.5 µM | [10] 10.3 µM | [11] 58.1 µM | [12] 24.6 µM | [13] 28.9 µM
